The source of these data is ChEMBL document CHEMBL1909518, “Small molecule receptor protein tyrosine phosphatase γ (RPTPγ) ligands that inhibit phosphatase activity via perturbation of the tryptophan-proline-aspartate (WPD) loop” (J Med Chem, 2011).

One may read the IC50 as the concentration that gives 50% inhibition. As usually defined, the Ki is the equilibrium dissociation constant of an inhibitor or competing ligand from its target.

Assay [1] concerns the target T1, Receptor-type tyrosine-protein phosphatase gamma (Homo sapiens, UniProt P23470).
T1 sequence (P23470 whole entry): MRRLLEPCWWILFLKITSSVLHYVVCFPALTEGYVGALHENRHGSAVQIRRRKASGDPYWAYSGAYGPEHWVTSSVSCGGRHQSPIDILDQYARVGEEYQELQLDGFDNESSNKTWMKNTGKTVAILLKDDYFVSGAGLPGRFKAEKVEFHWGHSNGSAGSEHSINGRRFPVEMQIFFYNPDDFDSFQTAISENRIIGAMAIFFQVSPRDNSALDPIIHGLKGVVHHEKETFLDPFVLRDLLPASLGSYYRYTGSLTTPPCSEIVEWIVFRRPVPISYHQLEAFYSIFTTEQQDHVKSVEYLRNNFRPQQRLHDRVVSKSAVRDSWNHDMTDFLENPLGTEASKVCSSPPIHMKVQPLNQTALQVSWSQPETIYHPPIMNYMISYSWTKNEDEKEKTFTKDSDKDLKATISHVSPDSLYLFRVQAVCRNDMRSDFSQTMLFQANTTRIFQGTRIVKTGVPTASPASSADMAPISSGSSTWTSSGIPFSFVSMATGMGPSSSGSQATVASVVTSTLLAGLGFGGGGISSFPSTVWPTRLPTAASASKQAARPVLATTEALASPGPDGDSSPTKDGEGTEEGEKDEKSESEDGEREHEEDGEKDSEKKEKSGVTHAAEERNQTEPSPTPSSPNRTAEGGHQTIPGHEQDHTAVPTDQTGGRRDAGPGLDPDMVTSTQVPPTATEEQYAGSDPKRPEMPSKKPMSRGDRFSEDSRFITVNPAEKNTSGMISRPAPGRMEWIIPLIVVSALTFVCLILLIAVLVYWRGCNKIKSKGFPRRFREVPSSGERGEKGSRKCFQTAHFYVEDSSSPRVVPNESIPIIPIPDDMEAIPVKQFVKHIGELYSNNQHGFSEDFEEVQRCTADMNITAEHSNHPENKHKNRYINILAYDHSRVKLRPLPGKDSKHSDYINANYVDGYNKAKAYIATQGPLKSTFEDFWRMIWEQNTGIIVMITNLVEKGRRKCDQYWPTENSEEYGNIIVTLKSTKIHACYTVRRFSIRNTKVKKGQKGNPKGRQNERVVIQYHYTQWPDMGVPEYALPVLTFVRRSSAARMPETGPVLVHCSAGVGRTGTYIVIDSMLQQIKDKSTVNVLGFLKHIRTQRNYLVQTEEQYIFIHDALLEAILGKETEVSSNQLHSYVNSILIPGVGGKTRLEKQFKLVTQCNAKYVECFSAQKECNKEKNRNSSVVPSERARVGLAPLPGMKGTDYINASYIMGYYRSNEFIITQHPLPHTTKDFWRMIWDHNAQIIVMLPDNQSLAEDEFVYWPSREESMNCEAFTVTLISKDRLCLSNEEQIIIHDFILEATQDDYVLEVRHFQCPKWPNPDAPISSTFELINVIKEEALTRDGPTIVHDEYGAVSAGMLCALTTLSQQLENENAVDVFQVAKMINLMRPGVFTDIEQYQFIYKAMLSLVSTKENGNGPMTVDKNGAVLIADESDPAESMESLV
The assay is described as follows: Inhibition of RPTPgamma expressed in Escherichia coli BL21 (DE3) assessed as reduction in dephosphorylation of Z'-Lyte phospho-Tyr 1 peptide preincubated for 20 mins by FRET assay.

Assay [2] has as its target T1, Receptor-type tyrosine-protein phosphatase gamma. The assay is described as follows: Inhibition of RPTPgamma expressed in Escherichia coli BL21 (DE3) assessed as reduction in dephosphorylation of Z'-Lyte phospho-Tyr 1 peptide preincubated for 20 mins by Lineweaver-Burk plot.
For assay [3] the target is unchanged. Description: Inhibition of RPTPgamma expressed in Escherichia coli BL21 (DE3) assessed as reduction in dephosphorylation of Z'-Lyte phospho-Tyr 1 peptide preincubated for 40 mins by FRET assay.

For the compound `O=C(O)c1sccc1SCc1ccc(Cl)c(Cl)c1`, the IC50 in assay [1] was found to be 2.6 µM; in assay [3] it was 2.5 µM. Also, in assay [2], the Ki came out at 2.5 µM.
